# Results taken from US20220241333A1, “MODULATION OF T CELL CYTOTOXICITY AND RELATED THERAPY” (Cancer Research Technology Limited, priority 2019, published 2022).
# Assays:
# human naive CD4+ T cells = assay: GzmB expression in aCD3/aCD28-stimulated human naive CD4+ T cells; type: cell-based; conditions: addition of exogenous IL-2 (100 UI/ml), sixty percent without
# Experimental: FACS-purified human CD4^+ T cells were cultured in RPMI complete medium with irradiated autologous feeders cells in 1:1 ratio for 96 h, stimulated with aCD3 (OKT3) and aCD28 (9.3; BioXcell). To some wells anti-CD25 antibody (Basiliximab; Novartis) was added 48 hours post aCD3/CD28 stimulation.
# We next tested whether endogenous IL-2 was required for the differentiation of human Th-ctx cells.
# [1] = system: CD4+ Trp1 and OT-II T cells; assay: GzmB upregulation in CD4+ Trp1 and OT-II TCR Tg T cells stimulated in vitro with antigen and cytokines; type: cell-based, mouse; conditions: low antigen concentration (0.01 μM OVA peptide), comparison of CGAMMA chain cytokines
# Experimental: (§1) Purified CD4+ T cells (CD4 T cells beads, Miltenyi or CD4 Dyna Beads, Invitrogen) were cultured in RPMI complete medium (as above) together with DC and irradiated feeder cells (40 Gy) in 2:1:1 ratio for 72 or 96 h. Polyclonal CD4+ T cells were stimulated with anti-CD3 (2C11) and anti-CD28 (37.51) (BioXcell); OT-II cells with OVA peptide (Pepscan) and Trp-1 cells with Trp-1 peptide (Pepscan) at concentration indicated in figure legend. Mouse CD4 T cells were cultured with aCD25 (PC61) and aIL-2 (JES6-1A12, BioXcell).
# The increased expression of genes associated with CGAMMA chain cytokine signalling and the response to IL-2 in Trp1 Th-ctx is consistent with the cytokine milieu known to be induced by lymphodepletion (Williams et al., 2007) and could offer mechanistic insights into the acquisition of cytotoxic activity by tumour reactive CD4^+ T cells in vivo. We therefore evaluated the potential contribution of CGAMMA receptor cytokines to the upregulation of GzmB in tumour-reactive CD4^+ T cells. Briefly, CD4^+Trp1 and OTII TCR Tg T cells were stimulated in vitro for three days with different amounts of cognate antigen and in the presence or absence of IL-2, IL-7 or IL-15. […] Of key relevance, endogenous IL-2 was critical for GzmB upregulation in vitro as both IL-2 neutralisation and CD25 receptor blockade reduced GzmB upregulation in response to antigen (FIGS. 2C and 9A).
# [2] = system: polyclonal mouse CD4+ T cells; assay: GzmB and T-bet expression in polyclonal mouse CD4+ T cells stimulated in vitro; type: cell-based; conditions: low doses of αCD3, increasing amounts of exogenous IL-2
# Experimental: as §1
# The high levels of T-bet expression in CD4^+Trp1 and OTII Th-ctx cells lead us to evaluate its possible association with IL-2 and GzmB upregulation. […] Further validation was obtained using polyclonal mouse CD4^+ T cells stimulated in vitro with αCD3 in the presence or absence of exogenous IL-2, aCD28 and/or neutralising anti IL-2.
# [3] = system: human CD4+ Teff cells co-cultured with autologous Treg cells; assay: Human Treg suppression assay (GzmB and proliferation of CD4+ Teff); type: cell-based; conditions: co-culture with autologous Treg cells, even at the highest Treg:Teff ratios
# Source text: For Treg suppression assays FACS-purified naïve mouse or human CD4+ T cells were co-cultured with autologous Treg cells at indicated ratios.
# IL-2 deprivation is thought to be an important mechanism utilised by Treg cells to suppress T cell-mediated immunity, primarily impacting on proliferation and survival (Sakaguchi et al., 2008). To determine whether Tregs also suppress acquisition of cytotoxic potential by CD4 cells, we activated purified human naïve CD4^+ T cells with αCD3/αCD28 and co-cultured them with different numbers of autologous Treg cells.
substance,measurement,setting,value
IL-2: cytokine (Peprotech) added to T cell cultures,Percentage of GzmB+ CD4s,human naive CD4+ T cells,ninety five
same,Induction of GzmB,[1],most potent inducer
same,GzmB expression,[2],significantly augmented
same,GzmB production and proliferation by CD4+ Teff cells,[3],able to revert both effects
